Laboratory results from patent US20140315981A1, “STRATEGIES FOR PREVENTION AND/OR TREATMENT OF DISEASES BASED ON CD40 SILENCING” (FUNDACIO INSTITUT D'INVESTIGACIO BIOMEDICA DE BELLVITGE …, priority 2011, published 2014).

Columns and labels:
Type in all cases: in vivo
NZB/W F1 female mice [1] = assay: Spleen weight and splenocyte B cell populations, murine lupus nephritis; conditions: FIG. 9
Method: (§1) Five-month old NZB/W F1 female mice were divided into the following groups: • CYP (n=8)—mice were treated with intraperitoneal CYP 50 μg/kg every 10 days; • CTLA4-Ig (n=9)—mice were treated with intraperitoneal 50 μg CTLA4-Ig three times a week. • siRNA 1/w (n=9): mice were treated intraperitoneally with 50 μg of murine specific anti CD40 siRNA once a week; • siRNA 2/w P (n=9): mice were treated intraperitoneally with 50 μg of murine specific anti CD40 siRNA twice a week; • Control (n=11)—non-treated animals.

NZB/W F1 female mice [2] = assay: Proteinuria and renal function, murine lupus nephritis; conditions: vs. control, FIG. 3
Method: as §1
Treatment was given from six to nine old months. Body weight was determined twice a month. […]
Urinary protein concentration was determined by a commercial kit based on the Ponceau method (BayerDiagnostics, Madrid, Spain). Serum creatinine levels (in milligrams per decilitre) were determined by Jaffés method on an autoanalyzer (Beckman Instruments, Palo Alto, Calif.) at the end of the follow-up. Anti-DNA antibodies levels of anti-DNA antibodies were measured before treatment, and subsequently each month and at sacrifice, using a commercially available ELISA kit (Alpha Diagnostic International, San Antonio, Tex., USA) according to manufacturer's instructions (serum diluted 1:100). […] Kits contain positive and negative controls, and anti-DNA antibodies are estimated in a semi-quantitative way according to the optical density (o.d. 450).

NZB/W F1 female mice [3] = assay: Survival of NZB/W F1 mice with lupus nephritis under treatment; conditions: intraperitoneal treatment from six to nine months of age
Method: Animals NZB/W F1 female mice (Charles River, Spain) were used. The experiment was carried out in accordance with current legislation on animal experiments in the European Union and approved by our institution's Ethics Committee for Animal Research. Mice were housed in a constant temperature room with a 12-hour dark/12-hour light cycle, and were given free access to water and a standard laboratory diet.
as §1
Treatment was given from six to nine old months. Body weight was determined twice a month. Mice were placed in metabolic cages to collect 24-hour urine specimens before treatment, and again at six, seven and eight months. Blood was obtained from the tail vein at the same intervals. At the end of the follow-up, survivor animals were sacrificed and kidney processed for histological studies.
Data are expressed as mean+SE. Overall survival was analyzed by the Kaplan-Meier method. […]

CTLA4-Ig: soluble cytotoxic T-lymphocyte antigen 4 (CTLA-4)-IgG1 construct (Abatacept), costimulatory blocker
proportion of activated B cells in splenocytes (NZB/W F1 female mice [1]): reduced
proteinuria (NZB/W F1 female mice [2]): intermediate
Cumulative survival analyzed by the Kaplan-Meier method (NZB/W F1 female mice [3]): 100%
